Measurements from ChEMBL document CHEMBL4406833 (Eur J Med Chem, 2019).

Protein sequences, listed by entry. Tags and fused reporters are not part of them.
UniProt P14902, whole entry, looked up: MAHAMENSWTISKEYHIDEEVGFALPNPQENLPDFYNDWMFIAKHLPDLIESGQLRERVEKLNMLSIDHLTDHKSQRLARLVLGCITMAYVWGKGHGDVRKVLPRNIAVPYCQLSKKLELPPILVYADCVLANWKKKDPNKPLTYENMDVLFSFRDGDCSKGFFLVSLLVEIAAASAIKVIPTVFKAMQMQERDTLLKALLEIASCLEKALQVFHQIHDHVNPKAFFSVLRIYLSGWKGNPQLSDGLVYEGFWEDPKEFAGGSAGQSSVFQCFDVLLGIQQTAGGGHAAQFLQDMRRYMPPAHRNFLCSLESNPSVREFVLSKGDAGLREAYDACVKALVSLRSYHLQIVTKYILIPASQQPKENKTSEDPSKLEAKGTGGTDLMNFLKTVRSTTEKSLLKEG
UniProt P48775, whole entry, looked up: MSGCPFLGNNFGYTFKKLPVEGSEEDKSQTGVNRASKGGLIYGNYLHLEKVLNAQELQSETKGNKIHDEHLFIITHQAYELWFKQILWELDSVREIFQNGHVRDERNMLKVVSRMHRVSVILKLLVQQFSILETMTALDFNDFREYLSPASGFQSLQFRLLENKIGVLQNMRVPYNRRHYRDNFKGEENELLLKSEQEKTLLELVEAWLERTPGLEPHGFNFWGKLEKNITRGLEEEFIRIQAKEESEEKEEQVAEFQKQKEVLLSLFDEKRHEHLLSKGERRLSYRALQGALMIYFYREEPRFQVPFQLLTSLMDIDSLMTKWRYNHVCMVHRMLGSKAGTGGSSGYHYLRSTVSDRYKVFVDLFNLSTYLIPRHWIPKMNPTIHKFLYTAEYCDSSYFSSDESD
UniProt Q6ZQW0, whole entry, looked up: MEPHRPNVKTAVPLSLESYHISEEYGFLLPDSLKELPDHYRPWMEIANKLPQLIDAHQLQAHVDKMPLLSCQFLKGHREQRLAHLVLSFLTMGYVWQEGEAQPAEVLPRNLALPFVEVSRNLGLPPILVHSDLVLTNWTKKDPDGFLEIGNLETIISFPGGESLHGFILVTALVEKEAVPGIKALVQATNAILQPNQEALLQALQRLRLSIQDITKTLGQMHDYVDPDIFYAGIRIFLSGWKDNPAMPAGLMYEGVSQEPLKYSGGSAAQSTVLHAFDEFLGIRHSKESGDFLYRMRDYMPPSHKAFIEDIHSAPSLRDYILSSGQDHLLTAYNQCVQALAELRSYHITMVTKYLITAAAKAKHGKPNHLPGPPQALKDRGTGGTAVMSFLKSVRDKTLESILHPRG

Key:
[1] = biological target: Indoleamine 2,3-dioxygenase 1 (Homo sapiens, UniProt P14902); conditions: hela
[2] = biological target: Tryptophan 2,3-dioxygenase (Homo sapiens, UniProt P48775)
[3] = biological target: Indoleamine 2,3-dioxygenase 2 (Homo sapiens, UniProt Q6ZQW0)

| SMILES | IC50 [1] [nM] | IC50 [2] [µM] | IC50 [3] [nM] |
| --- | --- | --- | --- |
| COP(C)(=O)N1CCC(Nc2nonc2/C(=N/O)Nc2ccc(F)c(Br)c2)C1 (stereo unspecified) | 104 | – | – |
| COP(C)(=O)N1CCCC(Nc2nonc2/C(=N/O)Nc2ccc(F)c(Br)c2)C1 (stereo unspecified) | 148 | – | – |
| COP(C)(=O)NCCNc1nonc1/C(=N/O)Nc1cccc(C#N)c1 (stereo unspecified) | 36 | – | – |
| CCOP(C)(=O)NCCNc1nonc1/C(=N/O)Nc1ccc(F)c(Br)c1 (stereo unspecified) | 19.1 | – | – |
| COP(C)(=O)NC1CCN(c2nonc2/C(=N/O)Nc2ccc(F)c(Br)c2)CC1 (stereo unspecified) | > 1000 | – | – |
| CCCP(=O)(OCC)N1CCC(Nc2nonc2/C(=N/O)Nc2ccc(F)c(Br)c2)CC1 (stereo unspecified) | > 200 | – | – |
| COP(C)(=O)NCCNc1nonc1/C(=N/O)Nc1ccc(F)c(Br)c1 (stereo unspecified) | 10.1 | 3.96 | 490 |
| COP(C)(=O)NCCNc1nonc1/C(=N/O)Nc1ccc(F)c(Cl)c1 (stereo unspecified) | 17.9 | – | – |
| CCOP(=O)(CC)NCCNc1nonc1/C(=N/O)Nc1ccc(F)c(Br)c1 (stereo unspecified) | 20.8 | 2.54 | 280 |
| COP(C)(=O)NCCCCNc1nonc1/C(=N/O)Nc1ccc(F)c(Br)c1 (stereo unspecified) | 18.9 | 3.32 | 590 |
| COP(C)(=O)NCCCNc1nonc1/C(=N/O)Nc1cccc(Br)c1 (stereo unspecified) | 24 | – | – |
| COP(C)(=O)NCCCNc1nonc1/C(=N/O)Nc1ccc(F)c(Cl)c1 (stereo unspecified) | 35 | – | – |
| CC(C)OP(C)(=O)NCCNc1nonc1/C(=N/O)Nc1ccc(F)c(Br)c1 (stereo unspecified) | 25 | – | – |
| CCOP(=O)(CC)NCCNc1nonc1/C(=N/O)Nc1cccc(Br)c1 (stereo unspecified) | 14.6 | – | – |
| CCCP(=O)(NCCCNc1nonc1/C(=N/O)Nc1ccc(F)c(Br)c1)OCC (stereo unspecified) | 143 | – | – |
| COP(C)(=O)NCCNc1nonc1/C(=N/O)Nc1cccc(C(F)(F)F)c1 (stereo unspecified) | 21 | – | – |
| CCCP(=O)(NCCNc1nonc1/C(=N/O)Nc1ccc(F)c(Br)c1)OCC (stereo unspecified) | 37.2 | – | – |
| COP(C)(=O)NCCNc1nonc1/C(=N/O)Nc1ccc(F)cc1 (stereo unspecified) | 850 | – | – |
| COP(C)(=O)NCCNc1nonc1/C(=N/O)Nc1ccc(F)c(C(F)(F)F)c1 (stereo unspecified) | 17.1 | – | – |
| COP(C)(=O)NCCNc1nonc1/C(=N/O)Nc1cccc(Cl)c1 (stereo unspecified) | 14.4 | – | – |
| COP(C)(=O)NCCNc1nonc1/C(=N/O)Nc1ccc(F)c(C#N)c1 (stereo unspecified) | 24 | – | – |
| CCOP(=O)(CC)NCCCNc1nonc1/C(=N/O)Nc1ccc(F)c(Br)c1 (stereo unspecified) | 44 | – | – |
| COP(C)(=O)NCCNc1nonc1/C(=N/O)Nc1ccc(F)c(C)c1 (stereo unspecified) | 23 | – | – |
| COP(C)(=O)NCCNc1nonc1/C(=N/O)Nc1cccc(Br)c1 (stereo unspecified) | 10.5 | – | – |
| CCOP(C)(=O)N1CCC(Nc2nonc2/C(=N/O)Nc2ccc(F)c(Br)c2)CC1 (stereo unspecified) | > 200 | – | – |
| COP(C)(=O)NCCCCCNc1nonc1/C(=N/O)Nc1ccc(F)c(Br)c1 (stereo unspecified) | 26 | – | – |
| COP(C)(=O)N1CCN(c2nonc2/C(=N/O)Nc2ccc(F)c(Br)c2)CC1 (stereo unspecified) | > 1000 | – | – |
| COP(C)(=O)NC1CCCN(c2nonc2/C(=N/O)Nc2ccc(F)c(Br)c2)C1 (stereo unspecified) | > 1000 | – | – |
| COP(C)(=O)NCCNc1nonc1/C(=N/O)Nc1cccc(C)c1 (stereo unspecified) | 94 | – | – |
| CCOP(=O)(CC)N1CCC(Nc2nonc2/C(=N/O)Nc2ccc(F)c(Br)c2)CC1 (stereo unspecified) | > 200 | – | – |
